Source: patent US7714023B2, “Treatment or prophylaxis of migraine or headache disorders using citalopram, escitalopram or citalopram metabolites” (priority 2004, dated 2010)

Test system: M (non-selective) muscarinic receptor
Conditions: for IC50: read-out: Transporter and Muscarinic Receptor Binding IC50 Muscarinic, Table 2, ten concentrations

Row | Structure (SMILES) | inhibition of [3H]-QNB binding to the nonselective muscarinic receptor (at 1 μM) [%] | IC50 [µM]
1 | N#Cc1ccc2c(c1)COC2(CCCN)c1ccc(F)cc1 (racemic) [Racemic didesmethylcitalopram, 3-5-Cyano-1-(4-fluorophenyl)-1,3-dihydro-isobenzofuran-1-yl-propyl amine] | 12 | –
2 | CNCCC[C@@]1(c2ccc(F)cc2)OCc2cc(C#N)ccc21 [(S)(+)-Desmethylcitalopram] | – | 5.29
3 | CNCCC[C@]1(c2ccc(F)cc2)OCc2cc(C#N)ccc21 [(R)(−)-Desmethylcitalopram] | – | 15.4
4 | N#Cc1ccc2c(c1)CO[C@]2(CCCN)c1ccc(F)cc1 [(R)(−)-Didesmethylcitalopram] | – | 34.9
5 | N#Cc1ccc2c(c1)CO[C@@]2(CCCN)c1ccc(F)cc1 [(S)(+)-Didesmethylcitalopram] | – | 15.8
